Sfp inh – qHTS Assay for Inhibitors of Bacillus subtilis Sfp phosphopantetheinyl transferase (PPTase) | Biochemical Sfp PPTase activity, qHTS | Potency, µM, without a hit: max response, negative = inhibition, most hits filed as inhibitors | actives 3.5% (n = 310,000) | AID 1490, 2009 | 4'-phosphopantetheinyl transferase ffp (Bacillus subtilis), Q9F4F7; active = well fitted inhibition curve with a large enough effect; inconclusive = small, poorly fitted or top-dose-only effect, or another doubt; inactive = no such curve, though single readings can be large or run the other way;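 note: the enzyme is Sfp with the accession as filed and its product quenches rhodamine fluorescence; potency is the fitted concentration of half-maximal effect; 0% = enzyme reaction without inhibitor and -100% = no enzyme wells; top concentration of the series not given in the record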
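Buffer: 50 mM Hepes-Na pH 7.6, 10 mM MgCl2, 0.01% Nonidet P-40, 0.01% BSA. Enzyme 15 nM, pre-exposed to compound 15 min; substrates then added and fluorescence change tracked over 30 min.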
Lamin A splicing – LMNA splicing modulation | Potency, µM (doses to about 46.1 µM), for the others: at the top dose ratio change, negative = inhibition, usual class: inhibitors | HeLa LMNA splicing GFP/RFP minigene ratio, 48 h | AID 1487 | 200,000 compounds, 0.01% hits; active means well fitted inhibition curve with a large enough effect in the signal ratio, with a control signal flat, not every such curve was filed as active; inconclusive means small, poorly fitted or top-dose-only effect, or effect the other way, or a change in a side signal; the % refers to the signal ratio; further: potency means the concentration at half of the fitted maximal effect; on the % scale 0 is the no-effect control and ±100 the full control effect
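S3 HeLa cells stably expressing lamin A-EGFP splicing minigene plus DsRed2, 600 cells/well, 48 h compound exposure at 37C. Laser-scanning cytometry; analysed as GFP (500-530 nm)/RFP (575-640 nm) total intensity ratio; 0.5% DMSO vehicle.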
ALDH1A1 inh – ALDH1A1 (human) enzyme inhibition; Potency, µM (series often up to 75.3 µM), inactives show at the highest dose activity, negative = inhibition, most hits filed as inhibitors; AID 1030; P00352; Purified ALDH1A1, NADH fluorescence, propionaldehyde substrate; 220,000 compounds, 7.3% hits; active means well fitted inhibition curve with a large enough effect, not every such curve was filed as active; inconclusive means small, poorly fitted or top-dose-only effect, or another doubt; inactive means no such curve, though single readings can be large or run the other way;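 further: potency means the concentration at half of the fitted maximal effect; plate controls were no enzyme wells and a reference inhibitor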
G9a inh – blocks human histone lysine methyltransferase G9a | Q96KQ7 | G9a H3K9 monomethylation, AlphaScreen, 2 h | Potency, µM (series often up to 102 µM), for inactives: top-dose activity, negative = inhibition, hits mostly inhibitors | 350,000 compounds, 8.8% hits | AID 504332; further: potency means the concentration at half of the fitted maximal effect; on the % scale 0 is the no-effect control and ±100 the full control effect; nearly all actives have a fitted effect of over 75% in size
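Readings reflect AlphaScreen signal from monomethyl-H3K9 antibody detection. HMT at 20 nM; substrate b-H3K9 500 nM; cofactor SAM 20 uM; 2 h RT reaction; compounds tested as titrations in qHTS with 15 min preincubation.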
miR-21 FLuc – miR-21 reporter, rising signal | AID 2288 | HeLa miR-21 FLuc reporter, luciferase, 48 h | 340,000 tested, under 10 active | Potency, µM (titrated, usually from 38.3 µM), for the others: at the top dose reporter change, positive = more light; active = well fitted rising curve with a large enough effect; inconclusive = small, poorly fitted or top-dose-only effect; inactive = no such curve, though single readings can be large or run the other way;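 also: % of control where 0% means no effect; miR-21 action dims this reporter so a rising signal means less miR-21 action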
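Compounds were titrated across several concentrations (up to approximately 40 uM) and incubated 48 hours with HeLa miR-21-FLuc reporter cells (miR-21 target sequence downstream of FLuc, endogenous miR-21). Readout was firefly luciferase luminescence after lytic detection reagent.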
KDM4E inh – blocks human JMJD2E demethylase activity | Potency, µM (titrated, usually from 57.1 µM), inactives show top-dose activity change, negative = inhibition, hits mostly inhibitors | AID 2147 | JMJD2E catalytic domain, FDH-coupled NADH fluorescence (FDH is formaldehyde dehydrogenase) | 230,000 compounds, 1.6% hits; active means well fitted inhibition curve with a large enough effect, not every such curve was filed as active; inconclusive means small, poorly fitted or top-dose-only effect, or another doubt; inactive means no such curve, though single readings can be large or run the other way;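 further: potency means the concentration at half of the fitted maximal effect; 0% = wells with enzyme and -100% = buffer wells without enzyme; nearly all actives have a fitted effect of over 50% in size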
An asterisk follows results filed as active; ? = inconclusive; . = no result; [ ] = another dose, or the depositor's remark. Compounds with a hit are over-represented: about 13% of the library has one in this group of screens. Unless noted, the call rests on the fitted dose curve; in most records, active means well fitted curve in the direction sought with a large enough effect; inconclusive means small, poorly fitted or top-dose-only effect, or another doubt; inactive means no such curve, though single readings can be large; an effect the other way counts as inactive or inconclusive.

| mol | Sfp inh | Lamin A splicing | ALDH1A1 inh | G9a inh | miR-21 FLuc | KDM4E inh |
| --- | --- | --- | --- | --- | --- | --- |
| COc1ccc2nc(NC(=O)CSc3nccc(C)n3)sc2c1 | 0% | 19% | 4% | 34%[12.7 µM] | -1% | 3% |
| CSc1nsc(SCC(=O)NCc2ccccc2)n1 | 16% | . | . | 40µM* | -9% | . |
| CCc1cccc(NC(=O)c2ccc3c(c2)N(Cc2cccc(Cl)c2)C(=O)c2ccccc2S3=O)c1 (stereo not drawn) | . | ? | . | -29%[59 µM] | -1% | . |
| CCCc1nn2c(=O)cc(COC(=O)c3ccccc3NC(=O)COc3ccccc3F)nc2s1 | . | 13%[46 µM] | . | 5%[12.7 µM] | -5% | . |
| CCOc1ccc(C(=O)NCC(c2ccc3c(c2)OCO3)N2CCN(c3ccccc3F)CC2)cc1 (stereo not drawn) | . | -13%[46 µM] | . | -9%[59 µM] | 23% | . |
| COCCCn1c(=O)c2sccc2n2c(CCCC(=O)Nc3cc(C)cc(C)c3)nnc12 | . | . | . | 5%[59 µM] | -1% | . |
| COc1ccc(C(=O)OC2CCN(c3ncc(C(F)(F)F)cc3Cl)CC2)cc1 | -1% | 4% | 2% | . | -7% | -9% |
| CO/N=C/C1CCN(c2ncc(C(F)(F)F)cc2Cl)C1=O (stereo not drawn) | 16% | ? | 32µM* | 3% | 3% | 2% |
| O=c1cc(N2CCOCC2)oc2c(-c3ccccc3)cccc12 | 13% | 16µM* | -6% | 51%[12.7 µM] | . | ? |
| FC(F)(F)c1ccccc1NC(=S)Nn1cnnc1 | 20µM* | . | . | 7.1µM* | 0% | . |
| Cc1ccccc1NC(=S)Nc1ccccn1 | 56µM* | . | . | ? | -23% | -3% |
| S=C(Nc1ccccn1)Nc1ccccc1Cl | -7% | . | 1% | . | -56% | -6% |
| FC(F)(F)c1ccccc1NC(=S)Nc1cccc2cnccc12 | 20µM* | 7%[46 µM] | 25µM* | 35µM* | 0% | ? |
| Cc1ccc(C)c(NC(=S)Nc2cccc3cnccc23)c1 | 32µM* | -12%[46 µM] | 8.9µM* | 22µM* | -1% | 28µM* |
| COc1ccc(NC(=O)CSc2ccc3nc(-c4ccccc4)cn3n2)c(OC)c1 | . | -13%[46 µM] | . | ? | 13% | . |
| Cc1ccccc1NC(=S)Nc1cccc2cnccc12 | 3.2µM* | 13%[9.22 µM] | ? | 1.8µM* | 2% | -15% |
| Fc1ccccc1NC(=S)Nc1cccc2cnccc12 | 22µM* | -5%[46 µM] | 18µM* | 18µM* | -3% | ? |
| O=C(Nc1ccccc1N1CCCC1)c1cc(=O)[nH]c2ccccc12 | . | . | . | 2% | . | . |
| COC(=O)C1=C(O)/C(=C\c2ccc(CNC(=O)C(=O)Nc3ccc(C)c(C)c3)o2)N=C1C | ? | -2% | -15% | 50µM* | -6% | -9% |
| CCOC(=O)c1ccc(NC(=O)C(=O)NCc2ccc(/C=C(/C#N)C(=O)NCCOC)o2)cc1 | 4% | . | ? | -35% | -1% | ? |
| CCOC(=O)C(=O)NCc1ccc(/C=C2/N=C(C)C(C(=O)OCC)=C2O)o1 | 22µM* | 1%[46 µM] | -4% | . | 3% | ? |
| COC(=O)C1=C(O)/C(=C\c2ccc(CNC(=O)C(=O)Nc3ccc(C)cc3)o2)N=C1C | 13µM* | 15% | ? | 32µM* | -11% | -2% |
| CCOC(=O)C1=C(O)/C(=C\c2cccc(OC)c2)N=C1C | 1% | 8% | 7% | -25% | -4% | 11% |
| COC(=O)C1=C(O)/C(=C/c2cccc(OC)c2O)N=C1C | 15% | . | 1% | ? | -42% | -8% |
| CCOC(=O)C1=C(O)/C(=C/c2ccc(CNC(=O)C(=O)Nc3ccc(C)cc3)o2)N=C1C | 40µM* | 6% | -1% | 32µM* | -5% | -15% |
| COc1cc(NC(=O)Cn2ccc3ccccc3c2=O)cc(OC)c1OC | . | . | . | -34%[59 µM] | -2% | . |
| CO[C@@H]1COC(=O)[C@H]2CCCN2C(=O)[C@@H](C)COC(=O)CCC[C@H]1C | 26% | . | 10%[13.5 µM] | . | . | . |
| Cc1cccc(C(=O)NNC(=O)c2ccccc2)c1 | 1% | 5% | 12% | 23% | -23% | 4% |

4 entries from above, ordered by number of heavy atoms, rising.
| mol | Sfp inh | Lamin A splicing | ALDH1A1 inh | G9a inh | miR-21 FLuc | KDM4E inh |
| --- | --- | --- | --- | --- | --- | --- |
| O=c1cc(N2CCOCC2)oc2c(-c3ccccc3)cccc12 | 13% | 16µM* | -6% | 51%[12.7 µM] | . | ? |
| FC(F)(F)c1ccccc1NC(=S)Nc1cccc2cnccc12 | 20µM* | 7%[46 µM] | 25µM* | 35µM* | 0% | ? |
| COCCCn1c(=O)c2sccc2n2c(CCCC(=O)Nc3cc(C)cc(C)c3)nnc12 | . | . | . | 5%[59 µM] | -1% | . |
| CCc1cccc(NC(=O)c2ccc3c(c2)N(Cc2cccc(Cl)c2)C(=O)c2ccccc2S3=O)c1 (stereo not drawn) | . | ? | . | -29%[59 µM] | -1% | . |
